The values that follow are results of earlier work, collected in US6713077B1, “Control of shoot/foliar feeding pests with pesticide seed treatments” (Monsanto Technology, LLC, priority 1999, dated 2004).

Some results are limits rather than exact numbers.

The conditions of data set [1]: in words; cited from earlier work.
The conditions of data set [2]: 20° C.; cited from earlier work.

Turning to “5-1-benzyl-3-furylmethyl-d-cis(1R,3S,E)2,2-dimethyl-3-(2-oxo,-2,2,4,5 tetrahydro thiophenylidenemethyl)cyclopropane carboxylate [Kadethrin]”, the Water solubility result in data set [1] was “practically insol”. Moreover, in data set [2], the Vapor pressure is listed as below 0.1 mPa.
